Settings: amine oxide stored at 45°C; result in words

## sodium salt of hydroxyethylamine bis methylene phosphonic acid [Inhibitor 1]
  inhibitory effect upon storage: inferior with respect to Inhibitor 2
